Measurements from PubChem BioAssay AID693 (University of Pittsburgh Molecular Library Screening Center, 2007).
The entries are a selection whose mix differs from that of the whole data set. Calls of active or inactive are those of the source. Cut-off read from the data, not from the text of the source: active = inhibition above about 34% (passing the limit was not always enough); inactive = the rest.

By UniProt entry, the sequences of proteins in these tests, tags left out.
UniProt P53350, whole entry: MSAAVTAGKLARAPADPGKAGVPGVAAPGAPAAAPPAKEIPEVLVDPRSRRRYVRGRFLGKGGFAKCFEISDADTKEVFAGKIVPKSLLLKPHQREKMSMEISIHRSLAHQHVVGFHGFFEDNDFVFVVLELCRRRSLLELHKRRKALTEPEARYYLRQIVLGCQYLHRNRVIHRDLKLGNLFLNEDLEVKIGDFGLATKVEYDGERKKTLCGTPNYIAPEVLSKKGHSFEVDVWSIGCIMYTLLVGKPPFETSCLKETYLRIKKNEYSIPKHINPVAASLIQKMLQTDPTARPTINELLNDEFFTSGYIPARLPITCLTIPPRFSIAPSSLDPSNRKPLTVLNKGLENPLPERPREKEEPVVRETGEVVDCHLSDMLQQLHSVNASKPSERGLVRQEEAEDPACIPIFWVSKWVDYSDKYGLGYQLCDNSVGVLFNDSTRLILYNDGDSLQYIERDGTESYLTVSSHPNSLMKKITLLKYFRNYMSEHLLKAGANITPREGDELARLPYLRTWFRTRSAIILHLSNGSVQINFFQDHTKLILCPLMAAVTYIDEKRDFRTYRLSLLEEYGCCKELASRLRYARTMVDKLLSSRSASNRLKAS

molecular target: Serine/threonine-protein kinase PLK1 (Homo sapiens) (UniProt P53350); assay: Plk1 polo box domain binding inhibitors, primary screen, biochemical, fluorescence polarization (AID 693); settings: Plk1 PBD phosphopeptide binding, hits give high values,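 tested at about 20 µM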

Row | SMILES | inhibition
1 | N/C(=N\O)c1c(N)no[n+]1[O-] | inactive: -10.9%
2 | c1ccc(CN2CCC(Nc3ccccc3)CC2)cc1 | inactive: -0.66%
3 | CCC(CO)(C(=O)OC1CN2CCC1CC2)c1ccccc1 (stereo not given) | inactive: 12.5%
4 | CCOc1ncccc1C(=O)NCC1(N2CCOCC2)CCCCC1 | inactive: -11.8%
5 | O=C(NCC1(N2CCOCC2)CCCCC1)c1cc2ccccc2o1 | inactive: -25.2%
6 | O=C(OC1CN2CCC1CC2)C1c2ccccc2Oc2ccccc21 (stereo not given) | inactive: -13.2%
7 | COc1ccc(NC2CCN(CCc3ccccc3)CC2)c(OC)c1 | inactive: 21.7%
8 | O=C(NCC1(N2CCOCC2)CCCCC1)c1cc(=O)[nH]c2ccccc12 | inactive: 17.6%
9 | N#CC1(Nc2ccccc2)CCN(CCc2ccccc2)CC1 | inactive: 3.86%
10 | CN1CCC(Nc2cccc(F)c2)CC1 | inactive: 1.68%
